# AlphaSeq binding of Ab-14 light chain variants to a spike HR2 peptide

Target peptide (SARS-CoV-2 spike, HR2 region): PDVDLGDISGINAS

Parent: Ab-14, a human scFv built as VH, three GGGGS repeats, VL. Only the CDRs of the light chain vary.
VH: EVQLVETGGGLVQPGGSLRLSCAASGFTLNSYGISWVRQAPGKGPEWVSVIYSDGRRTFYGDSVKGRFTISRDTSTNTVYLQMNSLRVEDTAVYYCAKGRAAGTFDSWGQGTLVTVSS
VL: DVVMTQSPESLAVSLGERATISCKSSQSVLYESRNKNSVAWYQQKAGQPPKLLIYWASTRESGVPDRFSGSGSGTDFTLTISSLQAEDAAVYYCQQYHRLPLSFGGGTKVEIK

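Phage display of a naive human antibody library on the peptide gave the parent. The variants were designed computationally from a first round of random CDR variants and then made and measured. Several design methods are mixed in this list. AlphaSeq pools MATa yeast showing the antibodies with MATalpha yeast showing the peptide. The frequency of each diploid, read from paired DNA barcodes, reflects how well the two displayed proteins bind. Each replicate has its own calibration line, from reference interactions of the BCL2 family. Each pool was mated in six replicate cultures.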

Each variant's VL is given in full. Variants here have more than six changes. Scale: log10 of Kd in nM, estimated from mating counts; low values are strong binders. A mean of the replicates is given; it leaves out those without a signal. "nd" marks a missing value. The strain was present, yet no cells mated with the target were sequenced in any replicate, which points to weak or no binding. The authors averaged sequences with at least three values out of six and counted those with two or fewer as poor binders. A sequence measured in both rounds can read differently, since the two assays cover different ranges. As a blank, each scFv also met three strains without target: over all light chain designs, 4% of these pairings were detected, typically at 2.64 and seldom below 1.59. Of ten entries with the parent sequence, four were seen in most replicates (averages 0.34 to 2.37), three in one and three in none, so single entries are noisy.

Variant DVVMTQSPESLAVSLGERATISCKMSQSWLMEQRNVNSVAWYQQKAGQPPKLLIYQASKRLLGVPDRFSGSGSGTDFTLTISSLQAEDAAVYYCQQYHRLPLSFGGGTKVEIK showed 0.15 (6 of 6 replicates).
Variant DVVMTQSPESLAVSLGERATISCKLSATYRFESQQKNNIAWYQQKAGQPPKLLIYEMTTRESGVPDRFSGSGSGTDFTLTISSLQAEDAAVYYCQCYHRLPLSFGGGTKVEIK showed 1.62 (6 of 6 replicates).
Variant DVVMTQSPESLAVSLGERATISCKLSGLMQSSKFAKDNVAWYQQKAGQPPKLLIYENNTREAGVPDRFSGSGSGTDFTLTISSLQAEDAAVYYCQQYDRLPLSFGGGTKVEIK showed nd (0 of 6 replicates).
Variant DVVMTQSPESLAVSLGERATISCKIGMTLNTLMHTKNNVAWYQQKAGQPPKLLIYDLVTREQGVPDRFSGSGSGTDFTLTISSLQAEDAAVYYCQQYHRLPLSFGGGTKVEIK showed 0.49 (6 of 6 replicates).
Variant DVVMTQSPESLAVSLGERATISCSFHEVNFEGLAQTANVAWYQQKAGQPPKLLIYNASYAFEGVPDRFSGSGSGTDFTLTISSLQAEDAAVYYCQQYFRLPLTFGGGTKVEIK showed 0.57 (6 of 6 replicates).
Variant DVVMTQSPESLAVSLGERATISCNISHFMDVTAKHNNNVAWYQQKAGQPPKLLIYEMTMREMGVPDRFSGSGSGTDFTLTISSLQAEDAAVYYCQQYHHLPLSFGGGTKVEIK showed 1.00 (6 of 6 replicates).
Variant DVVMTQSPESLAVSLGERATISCKCQQSQDYESRNKNAVAWYQQKAGQPPKLLIYNASQREDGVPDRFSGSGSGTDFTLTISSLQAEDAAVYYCQQYHRLPLSFGGGTKVEIK showed 0.15 (6 of 6 replicates).
Variant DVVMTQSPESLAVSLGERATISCKLENSNLYQSRNKNSVAWYQQKAGQPPKLLIYNASTRYSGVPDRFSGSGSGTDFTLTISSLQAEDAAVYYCQQYHRLPLSFGGGTKVEIK showed 0.40 (6 of 6 replicates).
Variant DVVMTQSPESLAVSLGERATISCNLEMFDGMLNMYASSIAWYQQKAGQPPKLLIYNAHCLVQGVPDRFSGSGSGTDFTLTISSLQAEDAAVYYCQQYYRLPISFGGGTKVEIK showed 1.97 (6 of 6 replicates).
Variant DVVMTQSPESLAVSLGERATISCHITYGMMVHGRHSSSIAWYQQKAGQPPKLLIYQAETRAKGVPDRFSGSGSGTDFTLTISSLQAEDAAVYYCQQYDRLPLAFGGGTKVEIK showed 2.74 (6 of 6 replicates).
Variant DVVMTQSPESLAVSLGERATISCMVSQLMLWGLHAKNSIAWYQQKAGQPPKLLIYEAQTRCNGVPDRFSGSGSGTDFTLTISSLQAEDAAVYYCQQYDRLPLFFGGGTKVEIK showed 2.24 (3 of 6 replicates).
Variant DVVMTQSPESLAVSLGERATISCMISQSFLIGMKAKNSVAWYQQKAGQPPKLLIYQTSTRENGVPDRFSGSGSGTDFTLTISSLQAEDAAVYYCQQYDRLPLSFGGGTKVEIK showed 0.53 (6 of 6 replicates).
Variant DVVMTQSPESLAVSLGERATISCKLDLENGEEDKKGQNIAWYQQKAGQPPKLLIYEASTAGDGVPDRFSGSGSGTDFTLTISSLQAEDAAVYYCQSYWRLPLSFGGGTKVEIK showed 1.61 (4 of 6 replicates).
Variant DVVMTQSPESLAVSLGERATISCKITGTMRFEQKASNNIAWYQQKAGQPPKLLIYEVTTRSKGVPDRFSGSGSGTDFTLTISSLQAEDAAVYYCQQYYRLPLSFGGGTKVEIK showed 0.35 (6 of 6 replicates).
Variant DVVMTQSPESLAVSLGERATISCTLTQVQGMESHNKNSVAWYQQKAGQPPKLLIYDLSTRGSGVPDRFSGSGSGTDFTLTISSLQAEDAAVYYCQQYHRLPLSFGGGTKVEIK showed -0.03 (6 of 6 replicates).
Variant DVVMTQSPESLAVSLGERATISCKLWESVLGESRNQNAVAWYQQKAGQPPKLLIYSASTRELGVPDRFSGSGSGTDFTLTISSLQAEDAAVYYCQQYHRLPLSFGGGTKVEIK showed -0.08 (6 of 6 replicates).
Variant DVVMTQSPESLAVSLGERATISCSLTAHEEEKKGAEASVAWYQQKAGQPPKLLIYEAVMLESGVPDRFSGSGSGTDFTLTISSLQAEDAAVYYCQQYHQLPLMFGGGTKVEIK showed 2.17 (6 of 6 replicates).
Variant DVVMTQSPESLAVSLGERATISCKLGGEQQNSTYEKDNVAWYQQKAGQPPKLLIYDVNTTIEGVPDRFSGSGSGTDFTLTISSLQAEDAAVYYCQHYSRLPLTFGGGTKVEIK showed 2.29 (5 of 6 replicates).
Variant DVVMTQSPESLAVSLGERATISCTISGVMQTSSHIKNNVAWYQQKAGQPPKLLIYEVSTRLDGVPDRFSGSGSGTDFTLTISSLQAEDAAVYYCQQYFRLPLEFGGGTKVEIK showed 0.43 (6 of 6 replicates).
Variant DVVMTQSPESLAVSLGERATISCTIDQYTSYGNGENWAIAWYQQKAGQPPKLLIYDVSIKDYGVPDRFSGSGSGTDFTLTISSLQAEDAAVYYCQQYARLPLLFGGGTKVEIK showed 1.38 (6 of 6 replicates).
Variant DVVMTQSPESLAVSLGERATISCKLSLSWLFESIEHNSVAWYQQKAGQPPKLLIYERSTRESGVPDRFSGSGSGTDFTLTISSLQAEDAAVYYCQDYNRLPLSFGGGTKVEIK showed 1.75 (1 of 6 replicates).

From the AlphaSeq antibody data of Li et al. 2023 (doi:10.1038/s41467-023-39022-2), copy in the FLAb collection.